Data reported in patent US20220040230A1, “COMPOSITIONS AND METHODS FOR IMMUNOTHERAPIES” (The Regents of the University of California, priority 2018, published 2022).

System: OSCCs
Experiment: 4-hour 51Cr release cytotoxicity / ADCC assay against OSCCs
Assay type: cell-based, human
Protocol: The target cells (5×10^5) were labeled with 50 μCi ^51Cr (Perkin Elmer, Santa Clara, Calif.) and chromated for 1 hour. Following incubation, target cells were washed once to remove excess unbound ^51Cr. Cells were resuspended in 1×10^6/mL and the treated with the anti-MICA/MICB antibody or Cetaximab (3 μg/mL) and incubated for 30 minutes. Following incubation, target cells were washed again to remove excess unbound antibody and ^51Cr. Labeled target cells were culture with effector cells and the cytotoxicity against target cells were assessed using ^51Cr release cytotoxicity assay.
^51Cr Release Cytotoxicity Assay ^51Cr was purchased from Perkin Elmer (Santa Clara, Calif.). Standard ^51Cr release cytotoxicity assays were used to determine NK cell cytotoxic function in the experimental cultures. […] After a 4-hour incubation period, the supernatants were harvested from each sample and counted for released radioactivity using the gamma counter. Total (containing ^51Cr labeled target cells) and spontaneous (supernatants of target cells alone) release values were measured and used to calculate the percentage specific cytotoxicity. The percentage specific cytotoxicity was calculated using the following formula: […]
Lu30/10^6 is calculated by using the inverse of the number of effector cells needed to lyse 30% of target cells×100.

Cetaximab: antibody against EGFR receptor
ADCC against antibody treated OSCCs by expanded NK cells (expanded NK and IL2-reactivated expanded NK cells, day 15): did not mediate ADCC | NK cell cytotoxicity against antibody treated vs untreated OSCCs (ADCC) (untreated and IL-2 treated primary NK cells): higher levels of cytotoxicity
